Reference: PubChem BioAssay (NCI)
Several values for one entry are separate records, joined by “and”; a condition that tells them apart may be missing. Equal entries are not always repeated. The list shows a part of the results, in another mix than the full data.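 Negative percent growth values reflect cell death: -40 means 40% of the cells present at the start died, and -100 means all died.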 Activity calls are given as the source filed them. The calls were made as follows: active = growth percent below 10; inactive = the rest.

Columns and labels:
Assay in all cases: NCI-60 one-dose screen, 48 h (100 = growth as untreated, 0 = no growth, -100 = all killed)
Conditions in all cases: 10 µM unless noted
[1] = system: NCI-H23 lung
[2] = system: NCI-H226 lung
[3] = system: NCI-H322M lung
[4] = system: HOP-62 NSCLC
[5] = system: NCI-H460 lung
[6] = system: HOP-92 NSCLC
[7] = system: NCI-H522 lung
[8] = system: A549/ATCC NSCLC
[9] = system: 786-0 renal
[10] = system: COLO 205 colon
[11] = system: DU-145 prostate
[12] = system: K-562 leukemia
[13] = system: MALME-3M melanoma
[14] = system: MDA-MB-231 breast
[15] = system: RXF 393 renal
[16] = system: SF-268 CNS
[17] = system: SF-295 CNS
[18] = system: SF-539 CNS
[19] = system: UACC-257 melanoma
[20] = system: M14 melanoma

Measured: growth

COc1cc([N+](=O)[O-])c([N+](=O)[O-])cc1OC
inactive: [1] 102% and 100% | [2] 106% and 105% | [3] 101% and 97.4% | [4] 109% and 112% | [5] 105% | [6] 99.8% and 121% | [7] 86.9% and 107% | [8] 90.7% and 104% | [9] 104% and 106% | [10] 135% and 116% | [11] 103% and 108% | [12] 80.5% and 86.9% | [13] 117% and 103% | [14] 107% and 115% | [15] 118% and 109% | [16] 104% | [17] 112% and 114% | [18] 88.8% and 106% | [19] 88.8% and 99.7% | [20] 99.9% and 101%

Clc1ccc(P(Cl)Cl)cc1
inactive: [1] 104% | [2] 108% | [3] 105% | [4] 111% | [5] 109% | [6] 64.6% | [7] 96.4% | [8] 93.5% | [9] 109% | [10] 118% | [11] 114% | [12] 99.9% | [13] 111% | [14] 89.7% | [15] 112% | [16] 112% | [17] 113% | [18] 93.7% | [19] 98.5% | [20] 108%

ClCCN1CCn2cnc3ncnc-3c21
inactive: [1] 110% | [2] 103% | [3] 107% | [4] 106% | [5] 112% | [6] 99.2% | [7] 87.8% | [8] 111% | [9] 98.9% | [10] 114% | [11] 105% | [12] 110% | [13] 109% | [14] 107% | [15] 105% | [16] 97.8% | [17] 98.9% | [18] 102% | [19] 109% | [20] 99.8%

CCOC(=O)N1CCN(CCCl)CC1
inactive: [1] 103% | [2] 103% | [3] 103% | [4] 97.1% | [5] 110% | [6] 86.4% | [7] 96.6% | [8] 107% | [9] 99.7% | [10] 102% | [11] 110% | [12] 107% | [13] 108% | [14] 111% | [15] 105% | [16] 109% | [17] 96.1% | [18] 97.9% | [19] 109% | [20] 99.1%

CCCNC(=O)c1ccc(N(CCCl)CCCl)cc1
inactive: [1] 95% | [2] 105% | [3] 118% | [4] 89.5% | [5] 100% | [6] 77.2% | [7] 91.2% | [8] 93.4% | [9] 107% | [10] 108% | [11] 117% | [12] 113% | [13] 110% | [14] 111% | [15] 120% | [16] 107% | [17] 109% | [18] 109% | [19] 97.1% | [20] 96.9%

Cc1nn(Cc2ccccc2)c(C)c1C1(O)C[C@H](CC#N)OC1=O (stereo not given in full)
inactive: [1] 133% | [2] 110% | [3] 129% | [4] 104% | [5] 123% | [6] 112% | [7] 109% | [8] 115% | [9] 116% | [10] 116% | [11] 106% | [12] 121% | [13] 117% | [14] 114% | [15] 137% | [16] 121% | [17] 135% | [18] 124% | [19] 118% | [20] 54.4%

CCOP(=O)(CCBr)OCC
inactive: [1] 116% and 100% | [2] 96.9% and 97.5% | [3] 106% and 110% | [4] 97.5% and 95.5% | [5] 104% and 99.4% | [6] 80.2% and 101% | [7] 99.4% and 121% | [8] 102% | [9] 100% and 93.3% | [10] 118% and 111% | [11] 106% and 109% | [12] 102% and 116% | [13] 98.3% | [14] 123% and 98.5% | [15] 97.2% and 95.6% | [16] 110% and 102% | [17] 113% and 98.7% | [18] 97.4% and 104% | [19] 106% and 88.4% | [20] 108% and 104%

ClCCNC(Cc1ccccc1)c1ccccc1 (stereo not given)
inactive: [1] 89.5% | [2] 96% | [3] 102% | [4] 86.6% | [5] 103% | [6] 85.3% | [7] 85.1% | [8] 92% | [9] 96.9% | [10] 95.7% | [11] 104% | [12] 102% | [13] 106% | [14] 91.3% | [15] 107% | [16] 91.4% | [17] 96.4% | [18] 94.2% | [19] 94.6% | [20] 96.5%

CCCCCCC(C)OP(O)OC(C)CCCCCC (stereo not given)
inactive: [1] 94.1% | [2] 93.2% | [3] 102% | [4] 113% | [5] 127% | [6] 110% | [7] 107% | [8] 107% | [9] 100% | [10] 112% | [11] 117% | [12] 103% | [13] 98.8% | [14] 116% | [15] 106% | [16] 112% | [17] 101% | [18] 113% | [19] 112% | [20] 100%

Cc1ccc(S(=O)(=O)n2cc(C3(O)CC(CC#N)OC3=O)c3cc(Br)ccc32)cc1 (stereo not given)
inactive: [1] 116% | [2] 111% | [3] 104% | [4] 100% | [5] 107% | [6] 79.1% | [7] 111% | [8] 105% | [9] 106% | [10] 207% | [11] 106% | [12] 96.1% | [13] 125% | [14] 107% | [15] 93.9% | [16] 103% | [17] 101% | [18] 101% | [19] 103% | [20] 115%

O=[N+]([O-])c1cc(Cl)cc([N+](=O)[O-])c1O
inactive: [1] 111% | [2] 106% | [3] 110% | [4] 92.4% | [5] 104% | [6] 97.1% | [7] 89.5% | [8] 86.3% | [9] 100% | [10] 103% | [11] 116% | [12] 105% | [13] 114% | [14] 109% | [15] 114% | [16] 104% | [17] 102% | [18] 107% | [19] 87.9% | [20] 102%

CC1CCNP(=O)(N(CCCl)CCCl)O1 (stereo not given)
inactive: [1] 94% | [2] 112% | [3] 122% | [4] 106% | [5] 110% | [6] 91% | [7] 97.4% | [8] 104% | [9] 99.9% | [10] 104% | [11] 109% | [12] 112% | [13] 108% | [14] 93.5% | [15] 125% | [16] 95% | [17] 98.5% | [18] 112% | [19] 65% | [20] 106%

CCP(Cl)(Cl)(Cl)CC
inactive: [1] 94.8% | [2] 101% | [3] 100% | [4] 101% | [5] 103% | [6] 43% | [7] 74.2% | [8] 99.9% | [9] 96.2% | [10] 112% | [11] 97.7% | [12] 91.9% | [13] 80.5% | [14] 98.5% | [15] 91.9% | [16] 102% | [17] 94.8% | [18] 86.2% | [19] 85.9% | [20] 95.1%

CCOC(=O)CCNCCSP(=O)(O)O
inactive: [1] 98.1% | [2] 109% | [3] 104% | [4] 126% | [5] 102% | [6] 88% | [7] 97.8% | [8] 97% | [9] 101% | [10] 127% | [11] 108% | [12] 109% | [13] 97.9% | [14] 96.7% | [15] 98.5% | [16] 100% | [17] 106% | [18] 101% | [19] 100% | [20] 98.2%

CC1(C)NC(C)(C)C(Br)C(=O)C1Br (stereo not given)
inactive: [1] 99.7% | [2] 108% | [3] 143% | [4] 105% | [5] 115% | [6] 107% | [7] 95.8% | [8] 93.4% | [9] 102% | [10] 110% | [11] 117% | [12] 95.2% | [13] 139% | [14] 116% | [15] 134% | [16] 111% | [17] 109% | [18] 101% | [19] 96.2% | [20] 105%
